Test results as given in ChEMBL document CHEMBL1149986, “Topical antiinflammatory dehydroabietylamine derivatives. IV” (Bioorg Med Chem Lett, 1993).

Target: T1, Polyunsaturated fatty acid 5-lipoxygenase (Rattus norvegicus, UniProt P12527)
T1 sequence (P12527 whole entry): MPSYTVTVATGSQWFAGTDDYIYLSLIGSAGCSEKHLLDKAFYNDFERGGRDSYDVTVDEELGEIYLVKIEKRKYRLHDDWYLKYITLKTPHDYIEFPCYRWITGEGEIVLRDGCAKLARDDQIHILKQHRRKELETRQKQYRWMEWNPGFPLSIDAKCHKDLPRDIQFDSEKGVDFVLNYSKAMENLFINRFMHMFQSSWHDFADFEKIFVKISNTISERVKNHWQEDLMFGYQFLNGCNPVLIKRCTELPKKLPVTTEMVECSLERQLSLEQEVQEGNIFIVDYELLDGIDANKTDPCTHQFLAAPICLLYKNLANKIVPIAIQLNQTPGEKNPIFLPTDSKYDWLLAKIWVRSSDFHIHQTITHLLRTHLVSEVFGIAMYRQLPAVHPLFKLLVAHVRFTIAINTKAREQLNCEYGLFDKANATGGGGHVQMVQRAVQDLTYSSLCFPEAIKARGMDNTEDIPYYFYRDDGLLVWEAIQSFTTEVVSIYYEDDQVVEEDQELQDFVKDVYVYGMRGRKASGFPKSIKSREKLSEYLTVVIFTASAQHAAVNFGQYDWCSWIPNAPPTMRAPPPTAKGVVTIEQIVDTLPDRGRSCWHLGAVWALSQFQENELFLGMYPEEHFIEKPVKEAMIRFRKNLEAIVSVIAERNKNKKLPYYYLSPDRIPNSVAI
Experiment: Tested for its inhibitory activity against 5-lipoxygenase

CCN(CC)CCCC(C)Nc1c2ccc(Cl)cc2nc2ccc(OC)cc12 (stereo unspecified) [QUINACRINE]
IC50: 130 µM
